The data set relates to cross-linking of glycated bovine serum albumin (AGE-BSA) to rat tail tendon collagen. Kind of data set: Cross-linking Inhibition Assay.

The structures appear in SMILES notation.

On to `Cc1csc[n+]1CC(=O)c1ccc(Br)cc1.[Br-]` [3-(2-[4^1-bromophenyl)-2-oxoethyl)-4-methyl-thiazolium bromide], for which the “Relative Cross-link Inhibition (at 10 mM)” value was determined as 37%.

The values are drawn from patent publication US7022719B2, “Preventing and reversing the formation of advance glycosylation endproducts” (Alteon, Inc., priority 1995, dated 2006).
